Most compounds without a hit are left out; they make up all but 13% or so of the library.
Sfp inh = Sfp phosphopantetheinyl transferase inhibition. 3.5% of 310,000 active. AID 1490. Potency, µM, inactives show max response, negative = inhibition, actives largely listed as inhibitors. Biochemical Sfp PPTase activity, qHTS; active = well fitted inhibition curve with a large enough effect; inconclusive = small, poorly fitted or top-dose-only effect, or another doubt; inactive = no such curve, though single readings can be large or run the other way;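 note: the enzyme is Sfp with the accession as filed and its product quenches rhodamine fluorescence; potency is the fitted concentration of half-maximal effect; 0% = enzyme reaction without inhibitor and -100% = no enzyme wells; top concentration of the series not given in the record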
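Compounds were incubated with enzyme (final 15 nM) for 15 min at room temperature before substrate addition started the reaction. Fluorescence at 525 nm excitation, 598 nm emission was recorded immediately and after 30 minutes.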
ALDH1A1 block = blocks purified human ALDH1A1 activity. Purified ALDH1A1, NADH fluorescence, propionaldehyde substrate. AID 1030. Potency, µM (series often up to 75.3 µM), for the others: at the top dose activity, negative = inhibition, hits mostly inhibitors. 220,000 compounds, 7.3% hits. P00352; active = well fitted inhibition curve with a large enough effect, not every such curve was filed as active; inconclusive = small, poorly fitted or top-dose-only effect, or another doubt; inactive = no such curve, though single readings can be large or run the other way;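 also: potency is read from the fitted curve at half-maximal effect; plate controls were no enzyme wells and a reference inhibitor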
Lamin A splicing = modulators of lamin A splicing. HeLa LMNA splicing GFP/RFP minigene ratio, 48 h. Potency, µM (top dose mostly 46.1 µM), inactives show at the top dose ratio change, negative = inhibition, usual class: inhibitors. 200,000 compounds, 0.01% hits; active = well fitted inhibition curve with a large enough effect in the signal ratio, with a control signal flat, not every such curve was filed as active; inconclusive = small, poorly fitted or top-dose-only effect, or effect the other way, or a change in a side signal; the % refers to the signal ratio; also: potency is read from the fitted curve at half-maximal effect; % is scaled to controls: 0 for no effect and ±100 for the full control effect
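S3 HeLa stable clones carrying a lamin A-EGFP splicing minigene plus DsRed2 were seeded at 600 cells/well in Opti-MEM with 2% FBS, pin-dosed and incubated 48 h at 37°C. Acumen cytometry (488 nm) gave the GFP/RFP total-intensity ratio.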
miR-21 reporter = raises the signal of a miR-21 reporter; 340,000 tested, under 10 active; HeLa miR-21 FLuc reporter, luciferase, 48 h; Potency, µM (highest dose often 38.3 µM), without a hit: top-dose reporter change, positive = more light; active = well fitted rising curve with a large enough effect; inconclusive = small, poorly fitted or top-dose-only effect; inactive = no such curve, though single readings can be large or run the other way;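 also: % of control where 0% means no effect; miR-21 action dims this reporter so a rising signal means less miR-21 action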
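HeLa cells stably expressing CMV-driven firefly luciferase with a downstream miR-21 binding sequence, endogenously expressing miR-21, were treated with titrations (up to about 40uM final) for 48 hours at 37 degree Celsius. Luciferase luminescence was read after lysis.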
G9a inh = inhibitors of human histone lysine methyltransferase G9a; Q96KQ7; G9a H3K9 monomethylation, AlphaScreen, 2 h; Potency, µM (top dose mostly 102 µM), for inactives: at the top dose activity, negative = inhibition, actives largely listed as inhibitors; 350,000 compounds, 8.8% hits; AID 504332; also: potency is read from the fitted curve at half-maximal effect; % is scaled to controls: 0 for no effect and ±100 for the full control effect; nearly all actives have a fitted effect of over 75% in size
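Enzyme 20 nM + cpd, 15 min RT; add b-H3K9 pep 500 nM / SAM 20 uM; 2 h RT; anti-H3K9me1 Ab 0.5 ug/mL + SA donor / anti-rabbit acceptor beads 20 ug/mL each, 10 min; AlphaScreen read.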
KDM4E inh = JMJD2E (human) inhibition | B2RXH2 | JMJD2E catalytic domain, FDH-coupled NADH fluorescence (FDH is formaldehyde dehydrogenase) | Potency, µM (doses to about 57.1 µM), without a hit: at the highest dose activity change, negative = inhibition, actives largely listed as inhibitors | 230,000 compounds, 1.6% hits | AID 2147; active = well fitted inhibition curve with a large enough effect, not every such curve was filed as active; inconclusive = small, poorly fitted or top-dose-only effect, or another doubt; inactive = no such curve, though single readings can be large or run the other way;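 also: potency is read from the fitted curve at half-maximal effect; 0% = wells with enzyme and -100% = buffer wells without enzyme; nearly all actives have a fitted effect of over 50% in size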
Numbers without * were called inactive; ? = inconclusive; nt = no result; [ ] = remark or other dose. Unless noted, calls follow the shape of the dose curve; as a rule, active = well fitted curve in the direction sought with a large enough effect; inconclusive = small, poorly fitted or top-dose-only effect, or another doubt; inactive = no such curve, though single readings can be large; an effect the other way counts as inactive or inconclusive.

SMILES | Sfp inh | ALDH1A1 block | Lamin A splicing | miR-21 reporter | G9a inh | KDM4E inh
CSc1ccc(CN(C)Cc2nc3ccccc3c(=O)[nH]2)cc1 | -20.8% | nt | nt | 2.3% | 5.4%[59 µM] | 5.6%
COc1ccc(NC(=O)N2CCc3c([nH]c4ccc(OC)cc34)C2c2ccc(OC)cc2)cc1 (stereo unspecified) | nt | nt | nt | 16.7% | ? | nt
CCOc1ccc(CCNC(=O)c2cnc3sc(N4CCCCCC4)nn3c2=O)cc1 | nt | nt | -5.1%[46 µM] | -7.4% | 2.2%[59 µM] | nt
O=C(N/N=C/c1cc(Br)c(Br)o1)C(O)c1ccccc1 (stereo unspecified) | ? | ? | -5.7% | -15.0% | 6.31µM* | -24.9%
Cc1c(C(=O)NCc2cccc(Br)c2)oc2ccc3c(c12)C(=O)CC(C)(C)O3 | nt | nt | nt | -3.0% | -3.7%[59 µM] | nt
CCOc1cccc(C(=O)Nc2ccc(N3CCCC3)cc2)c1 | 9.2% | nt | nt | -24.3% | 3.55µM* | nt
CCOc1ccc(OCc2cccc(C(=O)Nc3ccc(CN4CCCCC4)cc3)c2)cc1 | 12.6µM* | 8.2% | ? | -35.2% | 20µM* | -8.4%
COc1ccc(OCc2cccc(C(=O)Nc3ccc(CN4CCCCC4)cc3)c2)cc1 | -17.7% | 0.4% | -5.1% | -71.3% | ? | ?
CCOc1ccc(C(=O)Nc2ccc(N3CCCC3)cc2)cc1 | ? | ? | -9.8% | -22.9% | ? | -5.1%
CCOc1cccc(C(=O)Nc2ccc3ccccc3c2)c1 | 7.8% | nt | nt | -6.9% | -11.3% | nt
CCOc1cccc(C(=O)Nc2ccc(N(CC)CC)cc2)c1 | 0.5% | ? | ? | -2.7% | 8.91µM* | 7.5%
COC(=O)CCC(=O)N1CCC(CCC(=O)NCc2ccc(F)cc2)CC1 | 11.1% | nt | nt | 1.1% | 64.4% | nt

Rewritten with values under each structure: part of the list above.
Fields: Sfp inh | ALDH1A1 block | Lamin A splicing | miR-21 reporter | G9a inh | KDM4E inh
CCOc1ccc(CCNC(=O)c2cnc3sc(N4CCCCCC4)nn3c2=O)cc1
    nt | nt | -5.1%[46 µM] | -7.4% | 2.2%[59 µM] | nt
O=C(N/N=C/c1cc(Br)c(Br)o1)C(O)c1ccccc1 (stereo unspecified)
    ? | ? | -5.7% | -15.0% | 6.31µM* | -24.9%
Cc1c(C(=O)NCc2cccc(Br)c2)oc2ccc3c(c12)C(=O)CC(C)(C)O3
    nt | nt | nt | -3.0% | -3.7%[59 µM] | nt

More results
SMILES | Sfp inh | ALDH1A1 block | Lamin A splicing | miR-21 reporter | G9a inh | KDM4E inh
C/C(=N\NC(=O)c1cc(C)oc1C)c1ccc(C)c([N+](=O)[O-])c1 | nt | nt | nt | nt | 16.9%[12.7 µM] | nt
Cc1csc2nc(-c3cccc(NC(=O)c4cccc(F)c4)c3)cn12 | nt | nt | -16.2%[46 µM] | 5.8% | 4.1%[59 µM] | nt
O=C1CC(NS(=O)(=O)c2ccc(F)cc2)CN1c1ccc2c(c1)OCCO2 (stereo unspecified) | nt | nt | nt | nt | -25.9% | nt
Cc1cc(C)nc(NS(=O)(=O)c2ccc(NC(=O)COc3ccc(Cl)cc3C)cc2)n1 | nt | nt | nt | -17.1% | 10µM* | nt
CC(=O)Nc1ccc(S(=O)(=O)NNC(=O)c2cccc(Cl)c2)cc1 | -25.5% | -6.2% | nt | -8.9% | 5.62µM* | ?
Cc1cccc(C(=O)NNS(=O)(=O)c2ccc(F)cc2)c1 | -2.8% | nt | nt | 1.3% | nt | nt
O=C(NNS(=O)(=O)c1ccccc1)c1cccc(F)c1 | 35.5µM* | nt | nt | -2.7% | 7.8%[0.501 µM] | nt
Cc1cc(C)nc(NS(=O)(=O)c2ccc(N/C=C/C(=O)c3ccc(Cl)cc3)cc2)n1 | 4.2% | -2.5% | -7.7% | -26.4% | ? | 22.4µM*
Cc1ccc(C)c(N2CCN(C(=O)CCS(=O)(=O)c3cc(Br)cc4c3N(C(=O)C3CC3)CC4)CC2)c1 | nt | nt | nt | -0.6% | -7.9%[59 µM] | nt
Cc1ccc(C)c(NC(=O)Cn2c(=O)nc(-c3ccccc3)c3ccccc32)c1 | nt | nt | -21.8%[46 µM] | 2.3% | 26.6%[59 µM] | nt
Cc1noc(NS(=O)(=O)c2ccc(N/C=C\C(=O)c3ccncc3)cc2)c1C | 10.2% | -6.9% | -5.2% | -4.0% | 50.1µM* | -2.4%
Cc1noc(NS(=O)(=O)c2ccc(N/C=C/C(=O)c3ccncc3)cc2)c1C | 1.9% | -3.0% | 5.1% | -22.3% | -41.7%[59 µM] | 2.0%
Cc1cccc(NC(=S)NNC(=O)COc2ccc(Cl)cc2Cl)c1 | ? | 6.31µM* | -1.0% | -1.8% | 8.91µM* | -1.8%
CC(=O)Nc1ccc(S(=O)(=O)NNC(=O)COc2ccc(Cl)cc2Cl)cc1 | -12.3% | nt | nt | -9.1% | 50.1µM* | 5.6%
O=C(CSc1nnnn1C1CCCC1)Nc1ccccc1F | 2.2% | nt | nt | -20.9% | 22.9%[12.7 µM] | 1.5%
CCOc1ccc2nc(NC(=O)CSc3nnnn3C3CCCCC3)sc2c1 | 22.5% | 8.91µM* | ? | -19.9% | 6.9%[59 µM] | ?
O=C(CSc1nnnn1C1CCCCC1)Nc1nc2c(s1)CCCC2 | -20.5% | 7.94µM* | ? | -11.9% | -33.6%[59 µM] | -6.1%
COc1ccc2nc(NC(=O)CSc3nnnn3C3CCCCC3)sc2c1 | -4.8% | ? | ? | -2.9% | -2.3%[59 µM] | -3.9%
COc1ccc(CCC(=O)OCC(=O)Nc2c(C)n(C)n(-c3ccccc3)c2=O)cc1 | nt | nt | nt | nt | 8.3%[12.7 µM] | nt
Cc1c(SCCO)c(=O)[nH]c2cc3c(cc12)OCO3 | 12.0% | ? | -4.2% | -4.4% | 50.1µM* | ?
CCCCC(=O)NC(c1ccccc1OC)c1ccc2cccnc2c1O (stereo unspecified) | 16.3% | nt | nt | ? | 8.2% | ?
COc1ccc(C(NC(C)=O)c2ccc3cccnc3c2O)c(OC)c1 (stereo unspecified) | 5.7% | -6.4% | ? | 24.6% | 43.7%[59 µM] | 22.4µM*
CCCCC(=O)NC(c1ccc(N(C)C)cc1)c1ccc2cccnc2c1O (stereo unspecified) | 10.9% | nt | nt | 21.2% | 39.8µM* | nt
CCCC(=O)NC(c1ccccc1OC)c1ccc2cccnc2c1O (stereo unspecified) | -2.8% | 0.5% | ? | ? | -3.8% | 31.6µM*
CCCCC(=O)NC(c1ccc(N(CC)CC)cc1)c1ccc2cccnc2c1O (stereo unspecified) | 17.1% | nt | nt | 23.8% | -10.1% | nt
Cc1ccc(S(=O)(=O)NC(C)C(=O)OCC(=O)N(C)c2ccccc2)cc1 (stereo unspecified) | nt | nt | nt | nt | 13.1%[12.7 µM] | nt
CN(Cc1cccs1)c1ncnc2sccc12 | 79.4µM* | -6.0% | ? | 3.1% | ? | -21.7%
CCC1CCCCN1CCCNC(=O)c1ccc2c(c1)c(C)c(C)n2C (stereo unspecified) | 2.8% | nt | nt | -2.8% | ? | nt
Cc1ccc(OCC(=O)Nc2ccc3nc(SCCOc4ccccc4)sc3c2)cc1 | nt | nt | 8.7%[46 µM] | -5.6% | -5.1%[59 µM] | nt
Cc1ccc(Nc2ncc3c(n2)CC(c2ccco2)CC3=O)c(C)c1 (stereo unspecified) | -16.9% | -4.7% | ? | -11.0% | 50.1µM* | 2.7%
Cc1ccc(NC(=O)CSCC(=O)Nc2ncc3c(n2)CC(c2ccco2)CC3=O)cc1 (stereo unspecified) | 14.1µM* | 3.98µM* | 19.6% | -8.1% | ? | -1.1%
Cc1oc(-c2cc3c(cc2Cl)OCO3)nc1CN1CCCC(C(=O)N2CCOCC2)C1 (stereo unspecified) | -26.7% | 1µM* | ? | -2.4% | nt | 7.9%
CCc1ccc(-c2nc(CN3CCCC(C(=O)N4CCN(c5cc(Cl)ccc5C)CC4)C3)c(C)o2)cc1 (stereo unspecified) | nt | nt | nt | 25.5% | 8.91µM* | nt
COc1ccc(CC(N)C(=O)NC2C(CO)OC(n3cnc4c(N(C)C)ncnc43)C2O)cc1 (stereo unspecified) | 19.8% | -3.3% | nt | nt | ? | 6.3%
Cc1ccc(-n2nc(CO)c(C(=O)NCCc3ccccc3)n2)cc1C | nt | nt | nt | -8.5% | -0.8%[59 µM] | nt

Compound activity from PubChem BioAssay.
